Experiment [1] relates to BALB/c mice. The experiment is described as follows: Asthma model: IgE assay (ELISA) in peripheral blood, alveolar lavage fluid and lung tissue. The conditions noted are these: 5mg/kg PO, 7 days, mean ± SEM; for Peripheral Blood IgE Concentration: serum. The method, then:
(§1) Experimental animals: BALB/c mice, from Guangdong Vital River Laboratory Animal Technology Co., Ltd.
(§2) Modeling was initiaed on the day of grouping, which was designated as M1. Except for the normal group, mice in all modeling groups were intraperitoneally injected with a sensitization solution of (500 µg OVA (Ovalbumin) (Supplier: Shanghai Macklin, Lot No.: C16255388) mixed with 5 mg aluminum hydroxide/mL) per mouse, while the normal control group was given an equal volume of sterile PBS solution. The injection cycle was M1, M7, and M14. Starting from M21, challenge was carried out by aerosolization once daily for 7 consecutive days. The challenge solution was a 20 mg/mL OVA (Ovalbumin) solution, and each aerosolization challenge lasted for 30 min. The normal control group was not subjected to aerosolization.
(§3) Administration was initiated on day M21, which was designated as D1, and was performed once daily for 7 consecutive days. The normal control group and the model control group were administered with vehicle alone under the same conditions. The administration regimen for the mouse asthma model was as follows:
Prior to necropsy, blood was collected from the eyeball. The collected mouse blood was then centrifuged at 1800 r/min at 4 °C for 15 min, and the supernatant serum was aliquoted and stored at -80 °C for testing. At the same time, alveolar lavage fluid and lung tissues were collected. The IgE levels in the above three samples was detected using an ELISA method (Supplier: Shanghai Enzyme-linked Biotechnology Co., Ltd., Lot No.: ml1037602). […] The results of the IgE levels in peripheral blood, lavage fluid, and lung tissue of each group are shown in Table 9, and the data are presented as mean ± standard error of the mean (SEM).
In general terms: ELISA stands for enzyme-linked immunosorbent assay.

By UniProt entry, the sequences of proteins in these tests, tags left out.
UniProt Q96LB1, whole entry: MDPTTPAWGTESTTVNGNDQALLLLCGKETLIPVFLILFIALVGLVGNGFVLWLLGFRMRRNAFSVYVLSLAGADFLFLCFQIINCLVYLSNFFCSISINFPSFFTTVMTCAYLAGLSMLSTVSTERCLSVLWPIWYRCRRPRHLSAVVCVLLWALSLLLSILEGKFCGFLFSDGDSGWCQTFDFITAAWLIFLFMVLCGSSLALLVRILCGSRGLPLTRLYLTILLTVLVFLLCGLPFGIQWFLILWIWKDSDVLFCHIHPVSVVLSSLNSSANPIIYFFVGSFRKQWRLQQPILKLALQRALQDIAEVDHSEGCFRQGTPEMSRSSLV

Experiment [2] deals with BALB/c mice. The experiment is described as follows: Asthma model: OVA sensitization and aerosol challenge, bronchoalveolar lavage fluid (BALF) cell differential count. The conditions noted are these: 5mg/kg PO, 7 days, mean ± SEM. As to the method:
as §1, §2, §3
The lungs were gently lavaged twice with normal saline to collect BALF. The recovered BALF was stored at 4 °C, and the cell differential count was detected using an automated hematology analyzer (Manufacturer: SYSMEX, Model: XN-1000). During the experiment, the asthma model mice developed typical symptoms, including shortness of breath, and ear and nose scratching, etc. […] The results of the bronchoalveolar lavage fluid cell differential count in each group are shown in Table 8, and the data are presented as mean ± standard error of the mean (SEM).

Another experiment concerns the target human MRGPRX2 (Homo sapiens, UniProt Q96LB1). The experiment is described as follows: In vitro target binding assay: BRET between MRGPRX2-Nluc and Venus-β-arrestin1 in transfected HEK-293T cells, antagonist mode against agonist R-ZINC-3573 (EC80). The conditions noted are these: antagonism of agonist R-ZINC-3573 at EC80, net BRET. The text has this:
Bioluminescence Resonance Energy Transfer (BRET) is an important biophysical technique for monitoring molecular interactions, and has been widely used to study protein-protein interactions in living cells. This technique requires the relevant proteins to be linked to an energy donor (such as luciferase) and an acceptor (such as a fluorescent protein). When a relevant drug molecule interacts with the protein, the protein structure alters, causing a change in the distance between the energy donor and the energy acceptor. The luminescence energy induced by the chemical reaction is transferred to the corresponding acceptor, resulting in increased acceptor emission, and generating a BRET signal. In this work, a DNA-synthesized target human MRGPRX2 and a donor luciferase Nluc (NanoLuc®Promega) (Supplier: Beijing Tsingke, Lot No.: SZ0171228-1), as well as an acceptor fluorescent protein Venus and the relevant test protein, namely human β-arrestin1 (ARRB1) (Supplier: Guangzhou Dahong Biotechnology, Lot No. HY22694-4396), were utilized, and were inserted into the eukaryotic expression vector plasmid pcDNA3.1(+) (Supplier: Qiyun Bio, Lot No.: QY2310) as fusion genes via a Linker sequence (GGSG). The cell line selected for the experiment was human embryonic kidney cells HEK-293T. The human embryonic kidney cell line HEK-293T was routinely cultured in 10 cm cell culture dishes using complete culture medium consisting of high-glucose DMEM medium supplemented with 10% (V/V) fetal bovine serum. Cells were seeded at 2×10^6 cells/10 cm dish on the first day of culture, and passaged every 72 h with the same number of cells. One day prior to transfection, cells were resuspended, counted, and seeded at a density of 2×10^6 cells/6 cm dish or 4×10^6 cells/10 cm dish. Transfection was carried out 16-24 h after seeding. Plasmids constructed with the fusion protein gene were transfected into the expression cell line, and the transfected cells were cultured under appropriate conditions for a period of time to allow sufficient expression of the fusion proteins. Transfection was performed by encapsulating plasmid DNA with PEI reagent, and the encapsulation process should to be carried out in Opti-MEM medium. The ratio of plasmid, PEI (Supplier: Yeasen Biotechnology, Lot No.: WP5430010), and Opti-MEM (Supplier: Gibco, Lot No.: 2883564) was 1:4:14 (W: W: V). The encapsulated plasmid was added to an appropriate amount of complete culture medium, amd gently mixed, which was then used to replace the existing culture medium of the previously plated cells. Cells were harvested 24 h after transfection. Subsequently, cells were resuspended using HBSS (Source: Biosharp, Lot No.: 24179687) and counted with a cell counter. The cells were diluted to a density of (3~5) ×10^5 cells/mL, and then seeded into a flat-bottom white 96-well microplate at 100 µ L/well, resulting in (3~5) ×10^4 cells per well. In each well, 10 µ L of antagonist compounds diluted with HBSS a different concentrations were added firstly, then the agonist compound at a specific concentration (EC80) was added. After reacting for 2 min, the substrate Furimazine (Supplier: TargetMol, Lot No.: 362434) at a final concentration of 10 µM was added. After reacting for another 2 min, the 96-well plate was placed in a PHERAstar FSX microplate reader (Supplier: BMG Labtech) to simultaneously measure the readings at wavelengths of 440 nm and 530 nm. Based on the fluorescence readings at 440 nm and 530 nm, the Ratio and net BRET were calculated. Ratio = Em530 nm / Em440 nm, and net BRET = Ratio co-transfection - Ratio single-transfection. The calculated net BRET values were inputted into GraphPad Prism 9, and curve fitting via nonlinear regression (four-parameter equation) and IC50 calculation were performed.
A general note: Bioluminescence resonance energy transfer reports proximity on the nanometre scale.

Marks after values point to notes of the source that are not given here.

In general, IC50 refers to the midpoint of a concentration-inhibition curve. Turning to `COc1c(-c2ccc(S(=O)(=O)NC3CCOCC3)cc2)c(F)cc2c(=O)c(C(=O)O)cn(C3CC3)c12`, in the experiment on BALB/c mice [1], the “Alveolar Lavage Fluid IgE Concentration” value worked out at 12.8 ± 0.9 ng/mL, the “Lung Tissue IgE Concentration” value turned out to be 39.8 ± 2.4 ng/mL and the “Peripheral Blood IgE Concentration” value stood at 15.6 ± 5.8 ng/mL. Moreover, in the experiment on BALB/c mice [2], the “Eosinophil Count” value is recorded as 2.0 ±0.7** 10^9/L, the “Leukocyte Count WBC” value was 2.6 ±0.7** 10^9/L, the “Lymphocyte Count” value was 0.2±0.06* 10^9/L and the “Monocyte Count” value is on record as 0.1±0.04* 10^9/L. Also, the “Neutrophil Count” value in the experiment with BALB/c mice [2] is 0.2±0.05* 10^9/L. The same compound showed an IC50 at human MRGPRX2 of 1 to 10 µM.
Consider `COc1c(-c2ccc(C(=O)NCC(C)(C)O)c(N)c2)c(F)cc2c(=O)c(C(=O)O)cn(C3CC3)c12`, for which, in the experiment with BALB/c mice [1], the “Alveolar Lavage Fluid IgE Concentration” value came to 12.1 ± 1.8 ng/mL, the “Lung Tissue IgE Concentration” value was determined as 37.2 ± 3.5 ng/mL and the “Peripheral Blood IgE Concentration” value turned out to be 14.7 ± 4.3 ng/mL. For the same compound, in the experiment with BALB/c mice [2], the “Eosinophil Count” value is on record as 2.0±0.5** 10^9/L, the “Leukocyte Count WBC” value is 2.5 ±0.5** 10^9/L, the “Lymphocyte Count” value is recorded as 0.2±0.06* 10^9/L and the “Monocyte Count” value is 0.1±0.02* 10^9/L. For the same compound, the “Neutrophil Count” value in the experiment on BALB/c mice [2] is reported as 0.2±0.04** 10^9/L.
As to `O=C(O)c1cn(C2CC2)c2nc(-c3ccc(S(=O)(=O)NCCO)cc3)c(F)cc2c1=O`, in the experiment on BALB/c mice [1], the “Alveolar Lavage Fluid IgE Concentration” value amounted to 6.3 ± 1.7 ng/mL, the “Lung Tissue IgE Concentration” value was found to be 32.8 ± 4.1 ng/mL and the “Peripheral Blood IgE Concentration” value came out at 11.9 ± 2.3 ng/mL. For the same compound, in the experiment on BALB/c mice [2], the “Eosinophil Count” value is 1.6±0.4*** 10^9/L, the “Leukocyte Count WBC” value is listed as 1.9±0.5*** 10^9/L, the “Lymphocyte Count” value is 0.1±0.06** 10^9/L and the “Monocyte Count” value is reported as 0.08±0.02** 10^9/L. Moreover, in the experiment with BALB/c mice [2], the “Neutrophil Count” value is listed as 0.1±0.08** 10^9/L.

(Values after patent publication EP4834881A1, “QUINOLONE COMPOUNDS AND USE THEREOF” (dated 2026).)
